Apparent affinities of Ab-14 variants for a coronavirus HR2 peptide

Data: MIT Lincoln Laboratory AlphaSeq set, Engelhart et al. 2022, doi:10.1038/s41597-022-01779-4, as distributed in FLAb.

Target peptide (SARS-CoV-2 spike, HR2 region): PDVDLGDISGINAS

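Phage display of a naive human antibody library on the peptide gave the parent. In library AAYL50, one, two or three CDR residues were substituted; doubles and triples were drawn at random. AlphaSeq pools MATa yeast showing the antibodies with MATalpha yeast showing the peptide. Mating (16 h, 30 °C) was followed by selection of diploids and sequencing of their barcodes. A regression on co-assayed BCL2-family reference pairs converts the normalised counts of each replicate to an apparent Kd. Each pool was mated in three replicate cultures.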

The variants keep the heavy chain, the linker and the frameworks of Ab-14 (scFv order VH, the linker GGGGSGGGGSGGGGS, VL).
VH: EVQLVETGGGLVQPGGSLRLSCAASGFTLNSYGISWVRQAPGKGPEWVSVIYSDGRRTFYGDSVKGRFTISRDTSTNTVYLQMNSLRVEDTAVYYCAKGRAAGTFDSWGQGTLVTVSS
VL: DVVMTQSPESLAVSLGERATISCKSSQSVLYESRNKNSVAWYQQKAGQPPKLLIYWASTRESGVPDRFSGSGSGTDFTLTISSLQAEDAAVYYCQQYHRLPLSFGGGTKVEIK

Variants are written as CDR1, CDR2 and CDR3 of the light chain (limits as in the source). Parent: KSSQSVLYESRNKNSVA, WASTRES, QQYHRLPLS.
The Kd shown is the geometric mean over detected replicates; a lower Kd is a better binder.
"not detected" marks a missing value. The strain was present, yet no cells mated with the target were sequenced in any replicate, which points to weak or no binding.
Parent in this assay: reference entry 4.4 nM, copy in this library 48 nM.
As a blank, each scFv also met three strains without target: over library AAYL50, 18% of these pairings were detected, typically at 15 µM and seldom below 970 nM.

| CDR-L1 | CDR-L2 | CDR-L3 | Kd (apparent) | detected |
|---|---|---|---|---|
| KSSYSVLYESRNKNYVA | WASTYES | QQYHRLPLS | 39 nM | 1 of 3 |
| KSSQSVLYESHNKTSVA | WASTRES | QQYHRLPLS | not detected | 0 of 3 |
| KSSQSVLAESRNKNIVA | WASTRES | QQYHRLPLS | 1.7 µM | 1 of 3 |
| KSSQSVLYESECKNSVA | WASTREF | QQYHRLPLS | 14 nM | 3 of 3 |
| KSSMSVLYESRNKNLVA | WASTRES | QQYHRLPLS | 20 µM | 1 of 3 |
| KSSQSVLYESRNKNSVA | WASTRAS | HQYHRLPLS | not detected | 0 of 3 |
| KSSQSDLYESRNKNSRA | WASTRES | QQYHRLPLS | not detected | 0 of 3 |
| KSSQSVLYESRNKNCVA | WASTRGS | QQYHRLPLD | not detected | 0 of 3 |
| KSSQSVLYESRNKWNVA | WASTRES | QQYHRLPFS | 70 nM | 3 of 3 |
| KWKQSVDYESRNKNSVA | WASTRES | QQYHRLPLS | not detected | 0 of 3 |
| KSSQSVLYESRNKNSVA | WASTRGS | KQYLRLPLS | 1.8 µM | 1 of 3 |
| KSSQSVLRESRNKYSVA | WASTRES | QHYHRLPLS | 6.6 µM | 3 of 3 |
| KSSQSVLYESRNKNSVA | WFSTRNS | QQYHRLSLS | 38 µM | 1 of 3 |
| KSSQSVLYESRNKNQVA | WASTRES | QQRRRLPLS | 85 µM | 1 of 3 |
| SSSQSVLMESRTKNSVA | WASTRES | QQYHRLPLS | 99 nM | 3 of 3 |
| ISSQSVLGESRNKNSVA | WASTRER | QQYHRLPLS | 5.0 nM | 3 of 3 |
| KSSYSVLYESRNKNSVA | WASMRES | QQYHGLPLS | 20 nM | 3 of 3 |
| KSSQSVLYESRNKNSVA | WASTREC | GQYGRLPLS | 160 nM | 3 of 3 |
| KSSQAVLYESRNKNSVA | WASTGES | QQTHRLPLS | not detected | 0 of 3 |
| SSSQSVLYESRNMNSVA | KASTRES | QQYHRLPLS | 1.7 nM | 3 of 3 |
| KSSQSVLYKSRNKNSVA | WHSTRNS | QQYHRLPLS | not detected | 0 of 3 |
| AISQSVLYESRNKNSVA | WASTAES | QQYHRLPLS | 28 nM | 3 of 3 |
| KSSQSTLYESRNKNTVA | WASTRES | CQYHRLPLS | not detected | 0 of 3 |
| KSSRKVLYESRNHNSVA | WASTRES | QQYHRLPLS | 180 nM | 3 of 3 |
| KSAQSVLYESRNKNSIA | YASTRES | QQYHRLPLS | not detected | 0 of 3 |
| KSSQSVLYESNNKNSVA | YASTRES | QQYHRLPLM | 1.3 nM | 3 of 3 |
| KFSQSVLYESRNLNSVA | WASTRES | QQYHRLPLK | 4.3 nM | 3 of 3 |
| KSSQSVLPESRNKNSVA | WASTRES | QQYVRLPFS | 19 nM | 3 of 3 |
| KSSCSVLYESRNKNSVA | WASVRES | QQFHRLPLS | 190 nM | 3 of 3 |
| KSSQSVLYESINKNSTA | WASTRES | QQYHRLPVS | not detected | 0 of 3 |
| KSSQSVLYESRNPNSVA | WASWRES | QQYHRLPLM | 390 nM | 3 of 3 |
| KSSQSVWYESRNKNSVA | WASTRCS | QQYHRLPRS | not detected | 0 of 3 |
| KSSQSVYYESRNKNGVA | WASARES | QQYHRLPLS | not detected | 0 of 3 |
| KSSQSVLYESRNKNSVA | TASTREV | QQVHRLPLS | 1.1 µM | 1 of 3 |
| KSSQSVYYESRNKNSVL | WASTRES | QQYHRLPLS | 32 µM | 2 of 3 |
| KSSQSVLYTARNKNSVA | WASTRMS | QQYHRLPLS | 14 nM | 3 of 3 |
| KSSQSVLYEPRNKNSDA | WASTMES | QQYHRLPLS | not detected | 0 of 3 |
| KSSMSVLYESRNKNSVA | WAVTRES | QQYHRLKLS | 480 nM | 3 of 3 |
| KSSQSVLYESRNKGSVA | WASTRES | QLYHYLPLS | not detected | 0 of 3 |
| KLSQSVLYESRNKNSVA | WASTRMS | QQYHRLPTS | 740 pM | 3 of 3 |
| KSRQSVLYESRNKNSVA | WASTRES | QQYHYLPYS | not detected | 0 of 3 |
| KKSQSVLYEERNKNSVA | WASTRES | QQYHLLPLS | 250 nM | 3 of 3 |
| KSSQSVLYYSCNKNSVA | WADTRES | QQYHRLPLS | 230 nM | 3 of 3 |
| KSSQSVLYESRNKNSVA | WNSTRES | QQYHRLYPS | not detected | 0 of 3 |
| KSSQSVLYESRNGNSVA | WASTLES | CQYHRLPLS | not detected | 0 of 3 |
| KSSQSVLYESRNKNSVA | WASTRFS | QQYHDLDLS | not detected | 0 of 3 |
| GSSQSVLYESRPKNVVA | WASTRES | QQYHRLPLS | 5.5 µM | 1 of 3 |
| KSSHSVWYESRNKNSVA | WASTRES | QQYHRLPSS | 92 nM | 3 of 3 |
| KSSQSVLYESVNKNYVA | WASTRES | QQYHWLPLS | 3.6 µM | 1 of 3 |
| KSSQSVLYESRNKNSVA | WAHTRES | QQYHRKPLS | not detected | 0 of 3 |
| KSSQSVLYESRNKNSVA | WGSTRWS | QQYDRLPLS | 110 nM | 3 of 3 |
| KSSWSVLYPSRNKNSVE | WASTRES | QQYHRLPLS | not detected | 0 of 3 |
| KSSQSFLYESQNKNSVA | WASTRSS | QQYHRLPLS | 8.3 nM | 3 of 3 |
| CSSQSVLYESRNKNSVA | WAETRES | QQYHHLPLS | 71 nM | 3 of 3 |
| KSSQSVPYEGRNKNSVA | WASTRES | QQYHRLSLS | not detected | 0 of 3 |
| KSSQSPLYESRNKNSVA | WASTRES | QQYHRGPLS | 8.5 nM | 3 of 3 |
| KTSQSVLYESRNKNSVA | WASTRES | QQNHREPLS | 7.2 nM | 3 of 3 |
| MSSQSQLYESRNKNSVA | WASTRES | QQYHRDPLS | 310 nM | 2 of 3 |
| KSSQSVLEEHRNKNSVA | WASTSES | QQYHRLPLS | 1.4 µM | 1 of 3 |

5 of these entries, quoted again:

CDR-L1,CDR-L2,CDR-L3,Kd (apparent),detected
KSSQSVLRESRNKYSVA,WASTRES,QHYHRLPLS,6.6 µM,3 of 3
KSSQSVLYYSCNKNSVA,WADTRES,QQYHRLPLS,230 nM,3 of 3
KSSWSVLYPSRNKNSVE,WASTRES,QQYHRLPLS,not detected,0 of 3
KSSCSVLYESRNKNSVA,WASVRES,QQFHRLPLS,190 nM,3 of 3
KSSQSVLYESRNKGSVA,WASTRES,QLYHYLPLS,not detected,0 of 3